The source of these data is ChEMBL document CHEMBL1148542, “Synthesis of a novel biotin-tagged photoaffinity probe for VEGF receptor tyrosine kinases” (Bioorg Med Chem Lett, 2006).

By UniProt entry, the sequences of proteins in these tests, tags left out. Where a name states a change or a piece, a line headed by the entry shows the natural chain unless it says otherwise.
UniProt P17948: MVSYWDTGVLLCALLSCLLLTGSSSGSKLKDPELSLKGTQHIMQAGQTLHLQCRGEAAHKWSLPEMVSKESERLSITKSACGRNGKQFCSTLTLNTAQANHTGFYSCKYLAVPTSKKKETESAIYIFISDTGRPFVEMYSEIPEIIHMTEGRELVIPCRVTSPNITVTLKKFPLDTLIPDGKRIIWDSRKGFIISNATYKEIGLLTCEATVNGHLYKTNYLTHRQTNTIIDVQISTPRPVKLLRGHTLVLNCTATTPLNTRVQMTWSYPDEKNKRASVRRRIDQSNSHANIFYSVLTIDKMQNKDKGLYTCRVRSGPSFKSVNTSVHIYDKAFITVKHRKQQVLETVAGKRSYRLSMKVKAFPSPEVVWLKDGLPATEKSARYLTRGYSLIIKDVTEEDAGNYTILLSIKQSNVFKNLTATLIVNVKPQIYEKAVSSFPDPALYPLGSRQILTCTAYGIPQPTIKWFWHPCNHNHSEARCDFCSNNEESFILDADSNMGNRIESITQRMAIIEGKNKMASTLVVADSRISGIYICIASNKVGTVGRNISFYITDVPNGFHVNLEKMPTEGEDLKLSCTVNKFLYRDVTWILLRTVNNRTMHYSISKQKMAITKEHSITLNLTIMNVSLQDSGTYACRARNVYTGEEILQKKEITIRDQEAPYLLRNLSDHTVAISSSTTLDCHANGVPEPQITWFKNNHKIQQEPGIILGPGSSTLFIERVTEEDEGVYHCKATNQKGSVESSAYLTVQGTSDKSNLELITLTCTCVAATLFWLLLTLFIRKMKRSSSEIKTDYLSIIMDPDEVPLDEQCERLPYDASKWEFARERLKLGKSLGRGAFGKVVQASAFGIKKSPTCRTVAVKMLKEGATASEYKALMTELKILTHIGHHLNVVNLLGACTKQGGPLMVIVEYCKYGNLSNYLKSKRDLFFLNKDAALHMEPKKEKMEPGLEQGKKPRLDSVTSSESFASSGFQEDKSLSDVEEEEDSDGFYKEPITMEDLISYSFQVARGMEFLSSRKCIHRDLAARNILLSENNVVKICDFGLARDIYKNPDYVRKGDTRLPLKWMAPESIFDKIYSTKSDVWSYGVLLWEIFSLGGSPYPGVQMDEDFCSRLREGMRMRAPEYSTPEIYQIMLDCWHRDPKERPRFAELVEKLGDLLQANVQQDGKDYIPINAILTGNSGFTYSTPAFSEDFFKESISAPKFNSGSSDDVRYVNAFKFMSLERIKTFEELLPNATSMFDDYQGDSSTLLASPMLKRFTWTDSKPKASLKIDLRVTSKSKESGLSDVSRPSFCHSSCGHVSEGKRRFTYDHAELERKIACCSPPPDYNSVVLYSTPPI
UniProt P35916: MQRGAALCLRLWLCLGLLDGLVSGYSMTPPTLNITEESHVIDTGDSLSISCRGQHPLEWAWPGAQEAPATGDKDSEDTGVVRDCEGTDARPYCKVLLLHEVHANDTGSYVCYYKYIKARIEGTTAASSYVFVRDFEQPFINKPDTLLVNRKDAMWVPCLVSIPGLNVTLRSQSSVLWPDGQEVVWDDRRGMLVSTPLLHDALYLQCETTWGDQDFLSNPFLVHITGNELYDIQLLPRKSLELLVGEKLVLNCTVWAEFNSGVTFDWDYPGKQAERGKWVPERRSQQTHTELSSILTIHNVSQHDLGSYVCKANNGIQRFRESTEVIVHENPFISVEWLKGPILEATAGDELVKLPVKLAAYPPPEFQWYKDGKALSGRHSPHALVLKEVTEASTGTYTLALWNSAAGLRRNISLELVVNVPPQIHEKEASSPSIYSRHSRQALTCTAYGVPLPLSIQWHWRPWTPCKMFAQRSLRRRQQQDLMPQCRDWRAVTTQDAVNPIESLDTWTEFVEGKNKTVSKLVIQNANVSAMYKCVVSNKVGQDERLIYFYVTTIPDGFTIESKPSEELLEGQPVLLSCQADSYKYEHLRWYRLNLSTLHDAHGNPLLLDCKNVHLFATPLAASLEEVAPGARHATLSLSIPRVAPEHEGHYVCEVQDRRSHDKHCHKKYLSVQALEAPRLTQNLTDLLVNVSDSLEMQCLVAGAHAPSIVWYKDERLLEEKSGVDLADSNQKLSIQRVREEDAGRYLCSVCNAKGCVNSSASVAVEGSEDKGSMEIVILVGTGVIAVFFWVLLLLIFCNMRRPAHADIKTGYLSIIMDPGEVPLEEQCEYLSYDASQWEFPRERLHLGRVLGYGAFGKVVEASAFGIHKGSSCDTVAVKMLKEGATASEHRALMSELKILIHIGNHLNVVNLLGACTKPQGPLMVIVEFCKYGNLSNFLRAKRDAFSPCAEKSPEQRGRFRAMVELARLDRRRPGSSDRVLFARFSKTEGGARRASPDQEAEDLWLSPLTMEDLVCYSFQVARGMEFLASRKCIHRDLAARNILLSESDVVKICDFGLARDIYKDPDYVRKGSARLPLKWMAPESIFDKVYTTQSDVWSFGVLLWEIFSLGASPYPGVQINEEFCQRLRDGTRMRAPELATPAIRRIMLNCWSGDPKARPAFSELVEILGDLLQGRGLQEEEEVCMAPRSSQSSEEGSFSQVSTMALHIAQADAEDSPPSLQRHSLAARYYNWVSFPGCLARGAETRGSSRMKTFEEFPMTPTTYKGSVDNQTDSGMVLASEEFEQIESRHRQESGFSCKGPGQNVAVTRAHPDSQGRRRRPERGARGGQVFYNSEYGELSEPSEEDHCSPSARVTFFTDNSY
UniProt P35968: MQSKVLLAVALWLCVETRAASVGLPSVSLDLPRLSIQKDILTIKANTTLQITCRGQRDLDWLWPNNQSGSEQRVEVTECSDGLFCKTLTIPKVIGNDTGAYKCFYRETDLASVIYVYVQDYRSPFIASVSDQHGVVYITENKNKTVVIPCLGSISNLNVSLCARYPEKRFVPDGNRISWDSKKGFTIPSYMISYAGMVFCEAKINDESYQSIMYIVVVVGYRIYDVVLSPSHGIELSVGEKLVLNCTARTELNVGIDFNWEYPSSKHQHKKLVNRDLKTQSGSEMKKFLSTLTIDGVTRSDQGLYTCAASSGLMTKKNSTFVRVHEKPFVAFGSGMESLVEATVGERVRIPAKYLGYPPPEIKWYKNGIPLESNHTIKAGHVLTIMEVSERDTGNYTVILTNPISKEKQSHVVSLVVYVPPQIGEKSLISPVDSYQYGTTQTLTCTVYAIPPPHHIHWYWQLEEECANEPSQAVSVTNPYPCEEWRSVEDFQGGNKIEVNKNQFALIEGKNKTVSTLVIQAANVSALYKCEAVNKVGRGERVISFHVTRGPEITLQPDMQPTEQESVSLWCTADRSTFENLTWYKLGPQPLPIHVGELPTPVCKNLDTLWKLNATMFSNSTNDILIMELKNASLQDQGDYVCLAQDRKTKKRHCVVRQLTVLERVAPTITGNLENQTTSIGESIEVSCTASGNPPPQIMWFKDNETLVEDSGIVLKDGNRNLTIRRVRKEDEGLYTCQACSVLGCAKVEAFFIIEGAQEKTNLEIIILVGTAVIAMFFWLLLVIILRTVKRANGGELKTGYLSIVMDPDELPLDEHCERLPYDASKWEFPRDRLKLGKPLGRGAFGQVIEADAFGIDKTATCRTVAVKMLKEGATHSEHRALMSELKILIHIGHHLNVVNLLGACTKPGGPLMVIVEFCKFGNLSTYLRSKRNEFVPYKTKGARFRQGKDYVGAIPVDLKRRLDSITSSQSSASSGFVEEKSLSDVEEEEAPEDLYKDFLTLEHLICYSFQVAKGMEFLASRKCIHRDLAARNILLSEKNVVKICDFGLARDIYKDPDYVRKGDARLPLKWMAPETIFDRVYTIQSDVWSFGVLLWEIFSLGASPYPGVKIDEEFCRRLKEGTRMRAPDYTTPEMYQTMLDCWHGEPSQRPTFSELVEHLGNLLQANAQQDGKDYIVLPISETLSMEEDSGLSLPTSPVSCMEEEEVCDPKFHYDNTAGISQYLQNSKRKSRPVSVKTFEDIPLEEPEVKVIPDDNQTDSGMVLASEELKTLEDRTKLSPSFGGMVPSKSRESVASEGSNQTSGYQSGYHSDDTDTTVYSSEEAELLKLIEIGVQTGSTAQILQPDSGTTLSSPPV

For this experiment, the target named is Vascular endothelial growth factor receptor (Homo sapiens, UniProt P17948+P35916+P35968). Briefly: Inhibitory activity against VEGF-stimulated proliferation in HUVEC. The format is functional.

`COc1cc2ncnc(Nc3ccc(Cl)cc3F)c2cc1OC` showed an IC50 of 1 µM.
